Measurements from ChEMBL document CHEMBL1148847, “Synthesis of 3-(1H-benzimidazol-2-yl)-5-isoquinolin-4-ylpyrazolo[1,2-b]pyridine, a potent cyclin dependent kinase 1 (CDK1) inhibitor” (Bioorg Med Chem Lett, 2007).

Species: Homo sapiens
Assay: Selectivity for CDK1 over VEGFR2

Fold change: 60
SMILES: c1ccc2c(-c3cnc4[nH]nc(-c5nc6ccccc6[nH]5)c4c3)cncc2c1
